Laboratory results published in ChEMBL document CHEMBL3400063, “Novel pyrrole carboxamide inhibitors of JAK2 as potential treatment of myeloproliferative disorders” (Bioorg Med Chem, 2015).

Tests used:
[1] = organism: Homo sapiens; experiment: Selectivity ratio of IC50 for recombinant epitope-tagged JAK1 (861 to 1152) (unknown origin) to IC50 for recombinant epitope-tagged JAK2 (808 to 1132) (unknown origin)
[2] = organism: Homo sapiens; experiment: Selectivity ratio of IC50 for recombinant epitope-tagged JAK3 (781 to 1124) (unknown origin) to IC50 for recombinant epitope-tagged JAK2 (808 to 1132) (unknown origin)

SMILES: CCc1ccc(Cl)cc1-n1cc(-c2ncnc3[nH]ccc23)cc1C(N)=O
- Ratio IC50 [1]: 1
- Ratio IC50 [2]: 1
